Laboratory results: PubChem BioAssay (NCI)
Some salts or complexes appear as unconnected parts, following the source record.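 Five compound concentrations were applied to cells in 96-well plates for 48 hours; endpoints were derived by simple linear interpolation of the resulting dose-response curve. GI50 marks 50% less growth. TGI denotes the concentration required for complete inhibition of growth.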

Experiments:
Assay in all cases: NCI tumour cell line growth inhibition, 48 h
786-0 renal = tested on: 786-0 renal
A498 renal = tested on: A498 renal
A549 NSCLC = tested on: A549 NSCLC
ACHN renal = tested on: ACHN renal
CCRF-CEM leukemia = tested on: CCRF-CEM leukemia
DLD-1 colon = tested on: DLD-1 colon
DMS 114 small cell lung = tested on: DMS 114 small cell lung
DMS 273 small cell lung = tested on: DMS 273 small cell lung
DU-145 prostate = tested on: DU-145 prostate
HCC-2998 colon = tested on: HCC-2998 colon
HCT-116 colon = tested on: HCT-116 colon
HL-60(TB) leukemia = tested on: HL-60(TB) leukemia
HOP-18 NSCLC = tested on: HOP-18 NSCLC
HOP-92 NSCLC = tested on: HOP-92 NSCLC
HS 578T breast = tested on: HS 578T breast
HT29 colon = tested on: HT29 colon
IGROV1 ovarian = tested on: IGROV1 ovarian
K-562 leukemia = tested on: K-562 leukemia
KM12 colon = tested on: KM12 colon
KM20L2 colon = tested on: KM20L2 colon
LOX IMVI melanoma = tested on: LOX IMVI melanoma
M14 melanoma = tested on: M14 melanoma
MALME-3M melanoma = tested on: MALME-3M melanoma
MCF7 breast = tested on: MCF7 breast
MDA-MB-231 breast = tested on: MDA-MB-231 breast
MOLT-4 leukemia = tested on: MOLT-4 leukemia
NCI-H226 lung = tested on: NCI-H226 lung
NCI-H23 lung = tested on: NCI-H23 lung
NCI-H322M lung = tested on: NCI-H322M lung
NCI-H460 lung = tested on: NCI-H460 lung
NCI-H522 lung = tested on: NCI-H522 lung
NCI/ADR-RES ovarian = tested on: NCI/ADR-RES ovarian
OVCAR-3 ovarian = tested on: OVCAR-3 ovarian
OVCAR-4 ovarian = tested on: OVCAR-4 ovarian
OVCAR-5 ovarian = tested on: OVCAR-5 ovarian
PC-3 prostate = tested on: PC-3 prostate
RXF 393 renal = tested on: RXF 393 renal
SF-295 CNS = tested on: SF-295 CNS
SF-539 CNS = tested on: SF-539 CNS
SK-MEL-2 melanoma = tested on: SK-MEL-2 melanoma
SK-MEL-28 melanoma = tested on: SK-MEL-28 melanoma
SK-MEL-5 melanoma = tested on: SK-MEL-5 melanoma
SNB-19 CNS = tested on: SNB-19 CNS
SNB-78 CNS = tested on: SNB-78 CNS
SR leukemia = tested on: SR leukemia
SW-620 colon = tested on: SW-620 colon
T-47D breast = tested on: T-47D breast
UACC-257 melanoma = tested on: UACC-257 melanoma
UACC-62 melanoma = tested on: UACC-62 melanoma
UO-31 renal = tested on: UO-31 renal

[Au+].[Au+].c1ccc([PH+](c2ccccc2)c2ccccc2)cc1.c1ccc([PH+](c2ccccc2)c2ccccc2)cc1.n1n[n-]c(-c2nnn[n-]2)n1
GI50 (786-0 renal): 2550 nM | TGI (786-0 renal): 10 µM | GI50 (A498 renal): 15.2 µM | TGI (A498 renal): 28.5 µM | GI50 (A549 NSCLC): 10.2 µM | TGI (A549 NSCLC): 36.4 µM | GI50 (ACHN renal): 13.6 µM | TGI (ACHN renal): 26.5 µM | GI50 (CCRF-CEM leukemia): 1670 nM | TGI (CCRF-CEM leukemia): 13.4 µM | GI50 (DLD-1 colon): 3.57 µM | TGI (DLD-1 colon): 15.5 µM | GI50 (DMS 114 small cell lung): 3.8 µM | TGI (DMS 114 small cell lung): 66.8 µM | GI50 (DMS 273 small cell lung): 6.66 µM | TGI (DMS 273 small cell lung): 29.3 µM | GI50 (DU-145 prostate): 11.8 µM | TGI (DU-145 prostate): 25 µM | GI50 (HCC-2998 colon): 11 µM | TGI (HCC-2998 colon): 24.2 µM | GI50 (HCT-116 colon): 9.26 µM | TGI (HCT-116 colon): 30.8 µM | GI50 (HL-60(TB) leukemia): 2620 nM | TGI (HL-60(TB) leukemia): 11.2 µM | GI50 (HOP-18 NSCLC): 14.9 µM | TGI (HOP-18 NSCLC): 28.5 µM | GI50 (HOP-92 NSCLC): 9.79 µM | TGI (HOP-92 NSCLC): 21.7 µM | GI50 (HS 578T breast): 15.2 µM | TGI (HS 578T breast): > 100 µM | GI50 (HT29 colon): 8.14 µM | TGI (HT29 colon): 22.5 µM | GI50 (IGROV1 ovarian): 7.14 µM | TGI (IGROV1 ovarian): 20.3 µM | GI50 (K-562 leukemia): 2580 nM | TGI (K-562 leukemia): 34.7 µM | GI50 (KM12 colon): 9.61 µM | TGI (KM12 colon): 29 µM | GI50 (KM20L2 colon): 10.5 µM | TGI (KM20L2 colon): 30.7 µM | GI50 (LOX IMVI melanoma): 4.19 µM | TGI (LOX IMVI melanoma): 14.4 µM | GI50 (M14 melanoma): 3.84 µM | TGI (M14 melanoma): 15.5 µM | GI50 (MALME-3M melanoma): 5.57 µM | TGI (MALME-3M melanoma): 14.9 µM | GI50 (MCF7 breast): 7.33 µM | TGI (MCF7 breast): 33.7 µM | GI50 (MDA-MB-231 breast): 15.8 µM | TGI (MDA-MB-231 breast): 35.3 µM | GI50 (MOLT-4 leukemia): 4.49 µM | TGI (MOLT-4 leukemia): 80.7 µM | GI50 (NCI-H226 lung): 7.79 µM | TGI (NCI-H226 lung): 18 µM | GI50 (NCI-H23 lung): 6.2 µM | TGI (NCI-H23 lung): 21.9 µM | GI50 (NCI-H322M lung): 12.9 µM | TGI (NCI-H322M lung): 25.9 µM | GI50 (NCI-H460 lung): 11 µM | TGI (NCI-H460 lung): 33.5 µM | GI50 (NCI-H522 lung): 1450 nM | TGI (NCI-H522 lung): 2970 nM | GI50 (NCI/ADR-RES ovarian): 21.3 µM | TGI (NCI/ADR-RES ovarian): 56 µM | GI50 (OVCAR-3 ovarian): 6.79 µM | TGI (OVCAR-3 ovarian): 17.6 µM | GI50 (OVCAR-4 ovarian): 7.8 µM | TGI (OVCAR-4 ovarian): 23.4 µM | GI50 (OVCAR-5 ovarian): 15.6 µM | TGI (OVCAR-5 ovarian): 29.5 µM | GI50 (PC-3 prostate): 11.8 µM | TGI (PC-3 prostate): 24.4 µM | GI50 (RXF 393 renal): 3.18 µM | TGI (RXF 393 renal): 10.2 µM | GI50 (SF-295 CNS): 6.66 µM | TGI (SF-295 CNS): 16.6 µM | GI50 (SF-539 CNS): 7.16 µM | TGI (SF-539 CNS): 20.7 µM | GI50 (SK-MEL-2 melanoma): 2400 nM | TGI (SK-MEL-2 melanoma): 7.95 µM | GI50 (SK-MEL-28 melanoma): 3.11 µM | TGI (SK-MEL-28 melanoma): 13.5 µM | GI50 (SK-MEL-5 melanoma): 5.41 µM | TGI (SK-MEL-5 melanoma): 18.1 µM | GI50 (SNB-19 CNS): 3.72 µM | TGI (SNB-19 CNS): 9.45 µM | GI50 (SNB-78 CNS): 3.74 µM | TGI (SNB-78 CNS): 53.2 µM | GI50 (SR leukemia): 2190 nM | TGI (SR leukemia): 8.86 µM | GI50 (SW-620 colon): 3.57 µM | TGI (SW-620 colon): 21.2 µM | GI50 (T-47D breast): 6.35 µM | TGI (T-47D breast): 26.9 µM | GI50 (UACC-257 melanoma): 4.06 µM | TGI (UACC-257 melanoma): 18 µM | GI50 (UACC-62 melanoma): 4.57 µM | TGI (UACC-62 melanoma): 16.9 µM | GI50 (UO-31 renal): 8.04 µM | TGI (UO-31 renal): 20.6 µM
